Measurements reported in patent US20120065203A1, “Methods of Reducing Serum Glucose and Triglyceride Levels and for Inhibiting Angiogenesis Using Substituted Indolealkanoic Acids” (The Institute for Pharmaceutical Discovery, LLC, priority 1998, published 2012).

Molecular target: human aldose reductase (hALR2) (Homo sapiens, UniProt P15121)
Assay: Inhibition of human aldose reductase (hALR2)
Type: biochemical
Details: ratio of hALR1 IC50 to hALR2 IC50 (selectivity)
Method: Representative compounds of the invention were tested for their potency, selectivity and efficacy as inhibitors of human aldose reductase.

HALR1/hALR2	Structure (SMILES)
2,700	COc1ccc2c(c1)c(Cc1nc3c(F)c(F)cc(F)c3s1)cn2CC(=O)O [Example 30, 5-Methoxy-3-(4,5,7-trifluorobenzothiazol-2-yl)methyl-indole-N-acetic acid]
1,270	O=C(O)Cn1cc(Cc2nc3c(F)c(F)cc(F)c3s2)c2c(Cl)cccc21 [Example 29, 4-Chloro-3-(4,5,7-trifluorobenzothiazol-2-yl)methyl-indole-N-acetic acid]
